Measured values reported in patent publication US8357705B2 (priority 2008, dated 2013).

Protein sequences, listed by entry. Tags and fused reporters are not part of them. Lines headed by an entry give the natural chain unless they say otherwise; changes in a name come on top.
UniProt P35372, whole entry, looked up: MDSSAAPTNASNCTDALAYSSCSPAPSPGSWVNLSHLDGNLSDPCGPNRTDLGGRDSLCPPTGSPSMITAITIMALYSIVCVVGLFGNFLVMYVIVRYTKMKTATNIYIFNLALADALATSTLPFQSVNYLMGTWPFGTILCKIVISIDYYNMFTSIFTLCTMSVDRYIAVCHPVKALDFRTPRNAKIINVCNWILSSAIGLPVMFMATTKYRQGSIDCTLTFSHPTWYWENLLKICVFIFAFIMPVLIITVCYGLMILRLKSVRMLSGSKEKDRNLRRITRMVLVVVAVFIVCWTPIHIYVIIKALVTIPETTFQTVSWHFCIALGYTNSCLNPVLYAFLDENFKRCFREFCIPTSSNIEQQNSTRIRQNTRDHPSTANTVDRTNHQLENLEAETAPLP
UniProt P41146: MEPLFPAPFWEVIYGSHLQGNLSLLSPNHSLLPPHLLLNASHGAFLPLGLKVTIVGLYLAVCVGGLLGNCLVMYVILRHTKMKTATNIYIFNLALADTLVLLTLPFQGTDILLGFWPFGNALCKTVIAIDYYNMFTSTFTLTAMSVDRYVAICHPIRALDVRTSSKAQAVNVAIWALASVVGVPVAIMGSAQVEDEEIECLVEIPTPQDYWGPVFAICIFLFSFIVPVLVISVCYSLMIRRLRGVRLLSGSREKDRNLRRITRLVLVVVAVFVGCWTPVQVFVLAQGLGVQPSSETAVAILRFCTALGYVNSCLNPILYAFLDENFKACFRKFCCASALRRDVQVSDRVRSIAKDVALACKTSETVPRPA

How the values were obtained:
[1] = target: human μ-opiate receptor (Homo sapiens, UniProt P35372); assay: μ-opiate receptor binding assay with [3H]-naloxone (CHO-K1 membrane preparation); conditions: for % Inhibition (μ) [1 μM]: test concentration 1 μmol/l, 1 nmol/l [3H]-naloxone; for Ki: read-out: Ki (μ) Mean, mean, Cheng-Prusoff conversion
[2] = target: ORL 1-receptor (Homo sapiens, UniProt P41146); assay: ORL 1 receptor binding assay with 3H-nociceptin/orphanin FQ (membranes of recombinant CHO-ORL 1 cells); conditions: 0.5 nM 3H-nociceptin/orphanin FQ; for % Inhibition (ORL1) [1 μM]: c = 1 μM; for Ki: read-out: Ki (ORL1) Mean, mean
[3] = test system: sodium channel binding site 2; assay: [3H] BTX binding to the sodium channel (BTX assay, synaptosomes); set-up: species or system rat
[4] = Nephelometric solubility study (phosphate buffer pH 7.4); assay type: physicochemical

| SMILES | % Inhibition (μ) [1 μM] [1] [%] | % Inhibition (ORL1) [1 μM] [2] [%] | Inhibition (BTX) Mean [% at 10 μM] [3] [%] | Ki [1] [nM] | Ki [2] [nM] | Nephelometry (lower boundary) ([4]; 10 mM phosphate buffer pH 7.4, 1% DMSO, 2 h at 37° C.) [µM] | solubility in aqueous media compared to structurally similar compounds (C-4 to C-6) ([4]; comparison in words) |
| --- | --- | --- | --- | --- | --- | --- | --- |
| CN(C)C1(c2ccccc2)CCC(N[C@H](Cc2c[nH]c3ccccc23)c2n[nH]c(=O)o2)CC1 (stereo partly shown) | 80 | 53 | 43 | – | – | – | – |
| CN(C)C(=O)[C@H](Cc1c[nH]c2ccccc12)NC1CCC(c2ccccc2)(N(C)C)CC1 (single isomer, unassigned) | – | – | – | 195 | 60 | – | – |
| CN(C)C(=O)[C@H](Cc1c[nH]c2ccccc12)NC1CCC(c2ccccc2)(N(C)C)CC1.Cl.Cl (single isomer, unassigned) | 72 | – | – | – | – | – | – |
| CN(C)C1(c2ccccc2)CCC(N[C@H](Cc2c[nH]c3ccccc23)c2n[nH]c(=O)o2)CC1 (single isomer, unassigned) | 97 | 91 | – | 7 | 8 | – | – |
| Cc1cnc([C@H](Cc2c[nH]c3ccccc23)NC2CCC(c3ccccc3)(N(C)C)CC2)o1 (single isomer, unassigned) | – | 97 | – | 18 | 4 | – | – |
| Cc1noc([C@H](Cc2c[nH]c3ccccc23)NC2CCC(c3ccccc3)(N(C)C)CC2)n1 (stereo partly shown) | 93 | 93 | – | – | – | – | – |
| Cc1csc([C@H](Cc2c[nH]c3ccccc23)NC2CCC(c3ccccc3)(N(C)C)CC2)n1 (single isomer, unassigned) | – | 86 | – | 9 | 20 | 100 | better solubility |
| CN(C)C1(c2ccccc2)CCC(N(C(=O)C(F)(F)F)C(Cc2c[nH]c3ccccc23)c2nnn[nH]2)CC1 (stereo not shown) | 72 | 39 | – | – | – | – | – |
| CN(C)C1(c2ccccc2)CCC(NC(Cc2c[nH]c3ccccc23)c2nnn[nH]2)CC1 (single isomer, unassigned) | – | 26 | – | 340 | 2800 | – | – |
